The chains behind the UniProt entries cited, without tags or fusion partners. Where a name states a change or a piece, a line headed by the entry shows the natural chain unless it says otherwise.
UniProt P00970: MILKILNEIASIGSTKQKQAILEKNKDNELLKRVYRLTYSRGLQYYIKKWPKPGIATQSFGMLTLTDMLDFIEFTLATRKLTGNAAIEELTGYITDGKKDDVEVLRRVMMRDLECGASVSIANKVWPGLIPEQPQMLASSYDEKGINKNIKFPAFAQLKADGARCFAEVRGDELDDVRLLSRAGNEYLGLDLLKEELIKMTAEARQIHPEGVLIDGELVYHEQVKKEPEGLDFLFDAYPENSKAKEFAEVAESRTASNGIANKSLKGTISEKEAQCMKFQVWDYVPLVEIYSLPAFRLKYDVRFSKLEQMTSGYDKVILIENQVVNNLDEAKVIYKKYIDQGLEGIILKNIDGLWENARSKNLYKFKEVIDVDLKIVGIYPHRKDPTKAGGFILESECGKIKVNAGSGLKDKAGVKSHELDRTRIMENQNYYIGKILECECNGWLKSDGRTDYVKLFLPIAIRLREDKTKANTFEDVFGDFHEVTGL
UniProt P26996: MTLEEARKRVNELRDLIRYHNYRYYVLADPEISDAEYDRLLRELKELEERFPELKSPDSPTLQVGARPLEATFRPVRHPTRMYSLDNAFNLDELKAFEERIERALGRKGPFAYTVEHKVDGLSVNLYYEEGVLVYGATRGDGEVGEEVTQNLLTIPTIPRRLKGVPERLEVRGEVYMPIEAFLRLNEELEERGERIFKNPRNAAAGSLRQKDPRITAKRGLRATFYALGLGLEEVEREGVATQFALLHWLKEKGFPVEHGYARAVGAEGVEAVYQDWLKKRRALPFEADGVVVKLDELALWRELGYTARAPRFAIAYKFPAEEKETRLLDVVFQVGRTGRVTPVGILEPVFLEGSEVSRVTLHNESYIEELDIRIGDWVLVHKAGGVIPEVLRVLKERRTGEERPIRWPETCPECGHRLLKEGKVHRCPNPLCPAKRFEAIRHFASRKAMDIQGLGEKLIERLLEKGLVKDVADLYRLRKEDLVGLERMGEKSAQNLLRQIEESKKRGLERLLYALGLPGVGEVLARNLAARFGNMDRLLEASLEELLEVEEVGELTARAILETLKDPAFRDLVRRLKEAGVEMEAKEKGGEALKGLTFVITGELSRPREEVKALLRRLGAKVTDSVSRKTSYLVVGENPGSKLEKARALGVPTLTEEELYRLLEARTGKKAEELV

In patent US20140038181A1, “CHEMICALLY SUBSTITUTED THERMOSENSITIVE PROBES AND COFACTORS FOR HOT START LIGATION” (TRILINK BIOTECHNOLOGIES, priority 2011, published 2014):

How the values were obtained:
T4 DNA ligase = T4 DNA ligase (Enterobacteria phage T4, UniProt P00970); settings: 10 units T4 DNA ligase, room temperature 10 or 60 min
Taq DNA ligase = Taq DNA ligase (Thermus thermophilus, UniProt P26996); assay: Hot Start Real-Time LCR with TBE-substituted cofactor and PDE probes; settings: 1 mM TBE-substituted NAD^+, PDE set 1+8+12+16, 20 units Taq DNA ligase, ligation 5 sec at 55° C., FIG. 18

| Substance | formation of ligation product (T4 DNA ligase; 1 mM cofactor not thermally treated, complementary template) | formation of ligation product (T4 DNA ligase; 1 mM cofactor thermally treated at 95° C. for 2 or 20 min before ligation) | template independent ligation (TIL) (Taq DNA ligase) |
| --- | --- | --- | --- |
| 2′,3′-O-bis-[2-(tert-butoxy)]ethyl-adenosine-5′-triphosphate | only traces of ligation product | ample formation of 80(+)-mer ligation product |  |
| P^1-5′-{2′,3′-O-bis-[2-(tert-butoxy)]ethyl}-nicotinamide riboside-P^2-5′-adenosine pyrohosphate |  |  | substantially reduces template independent ligation |

Read-outs that look alike come from different tables or passages of the source.
